Data from patent US20260124309A1, “STAT6 DEGRADERS AND USES THEREOF” (Kymera Therapeutics, Inc., priority 2023, published 2026).

Sequences of proteins named here, by UniProt entry; tags and fusion partners are left off. Residues count along the entry.
UniProt P42226, whole entry: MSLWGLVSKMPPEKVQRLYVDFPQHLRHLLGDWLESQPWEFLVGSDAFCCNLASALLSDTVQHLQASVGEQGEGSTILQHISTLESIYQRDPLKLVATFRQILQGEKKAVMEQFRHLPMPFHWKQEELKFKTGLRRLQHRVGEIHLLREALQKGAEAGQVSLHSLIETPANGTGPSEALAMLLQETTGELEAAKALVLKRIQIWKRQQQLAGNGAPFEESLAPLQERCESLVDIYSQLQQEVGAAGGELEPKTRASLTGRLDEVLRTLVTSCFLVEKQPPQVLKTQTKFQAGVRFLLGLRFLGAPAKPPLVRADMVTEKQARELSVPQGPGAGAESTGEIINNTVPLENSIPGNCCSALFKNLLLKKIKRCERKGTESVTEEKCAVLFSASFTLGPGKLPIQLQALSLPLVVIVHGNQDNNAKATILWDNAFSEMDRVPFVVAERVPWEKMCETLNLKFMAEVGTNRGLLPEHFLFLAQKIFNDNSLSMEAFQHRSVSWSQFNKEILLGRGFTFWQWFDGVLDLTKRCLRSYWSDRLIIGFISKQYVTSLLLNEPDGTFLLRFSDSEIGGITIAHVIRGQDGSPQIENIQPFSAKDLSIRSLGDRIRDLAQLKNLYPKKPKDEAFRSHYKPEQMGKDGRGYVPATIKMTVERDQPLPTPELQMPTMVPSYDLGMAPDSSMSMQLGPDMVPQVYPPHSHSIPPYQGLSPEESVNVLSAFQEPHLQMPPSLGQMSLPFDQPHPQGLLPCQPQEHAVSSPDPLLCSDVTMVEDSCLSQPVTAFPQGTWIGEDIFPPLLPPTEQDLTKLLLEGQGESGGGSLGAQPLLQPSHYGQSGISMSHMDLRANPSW
UniProt P42226, 123-632 limits assumed: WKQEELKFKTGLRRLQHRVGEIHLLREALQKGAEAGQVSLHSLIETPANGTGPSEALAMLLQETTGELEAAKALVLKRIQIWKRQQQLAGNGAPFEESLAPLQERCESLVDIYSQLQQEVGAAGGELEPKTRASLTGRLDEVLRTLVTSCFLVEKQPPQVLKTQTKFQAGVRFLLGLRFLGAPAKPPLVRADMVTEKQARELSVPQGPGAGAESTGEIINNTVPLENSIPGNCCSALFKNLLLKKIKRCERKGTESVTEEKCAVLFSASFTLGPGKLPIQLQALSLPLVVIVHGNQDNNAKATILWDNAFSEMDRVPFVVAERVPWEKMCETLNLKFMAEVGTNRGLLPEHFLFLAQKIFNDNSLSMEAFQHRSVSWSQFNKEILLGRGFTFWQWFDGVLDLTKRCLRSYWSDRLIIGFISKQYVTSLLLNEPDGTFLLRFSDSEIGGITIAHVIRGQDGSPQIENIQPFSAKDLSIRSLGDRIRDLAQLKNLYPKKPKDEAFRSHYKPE

Assays:
[1] = target: biotinylated truncated STAT6 (123-632)-avi (Homo sapiens, UniProt P42226); assay: STAT6 HTRF binding assay; conditions: read-out: STAT6 HTRF: Average IC50; HTRF binding, 0.15 nM biotinylated truncated STAT6 (123-632)-avi, 20 nM fluorescein-labeled probe
STAT6-HiBiT = STAT6-HiBiT (Homo sapiens, UniProt P42226); assay: STAT6 HiBiT degradation in A549 (STAT6-HiBiT) cells; conditions: for DC50: read-out: STAT6 HiBiT degradation DC50 (nM) 24 h
Protocol: Degradation of STAT6 in endogenously tagged STAT6-HiBiT A549 cells was quantitatively measured using the Nano-Glo HiBiT Lytic Detection System (Promega, 3040). A549 (STAT6-HiBiT) cells were seeded in 384-well plates with a density of 1.25k cells per well in 20 μl fresh media. Compounds were then added to the assay plates using the Apricot S3 with a final top concentration of up to 10 uM in a 4-fold dilution series with total of 10 doses. The assay plates were then incubated for 24 hours at 37° C. under 5% CO2. At the assay endpoint, 20 μL of Nano-Glo HiBiT Lytic Reagent was added to each well and agitated on a plate shaker at 300 rpm for 10 minutes at room temperature. Luminescence was read on PHERAStar FSX Instrument (Is integration time). The data was analyzed by GraphPad Prism and the dose dependent STAT6 degradation was fit using the four-parameter inhibitor vs. response nonlinear regression.
The letter codes for DC50 (nM) include: A (<1 nM): B (1-10 nM); C (>10-100 nM); D (>100-1000 nM); E (>1000 nM); and F (not tested). The letter codes for Dmax (%) include: A (>90%); B (>70-90%); C (>50-70%); D (<50%); and E (not tested).

STAT6 = STAT6 (Homo sapiens, UniProt P42226); assay: STAT6 MSD degradation in A549 cells; conditions: for DC50: read-out: STAT6 MSD degradation DC50 (nM) 24 h
Outline: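 A549 cells treated with a 9-point 1:3 series (top up to 10 uM) for 4 to 24 hours at 37° C., then lysed in RIPA. STAT6 quantified by sandwich MSD electrochemiluminescence immunoassay. DC50 and Dmax from four-parameter nonlinear fit, reported as letter-code bins.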

Row | Compound | IC50 [1] [nM] | STAT6 HiBiT degradation Dmax % 24 h (STAT6-HiBiT) | DC50 (STAT6-HiBiT) [nM] | STAT6 MSD degradation Dmax % 24 h (STAT6) | DC50 (STAT6) [nM]
1 | COc1cc(N2CC3(CCN(c4ccc(-c5cc(C6=CCCN(C(=O)CCn7cccn7)C6)c(F)c6[nH]c(C(=O)N(C)C)cc56)cc4F)CC3)C2)c(F)cc1C(=O)NC1CCC(=O)NC1=O (stereo not shown) | 100 to 1000 | A (A (>90%)) | < 1 | – | –
2 | CN(C)C(=O)c1cc(-c2ccc(C3CCN(c4ncc(C5CCC(=O)NC5=O)cc4F)CC3)cc2)c2c(c1)cc(C1=CCCN(C(=O)CCn3ccnn3)C1)n2CC1CC1 (stereo not shown) | < 100 | B (B (>70-90%)) | < 1 | – | –
3 | Cc1cc(C2CCN(c3cccc4c3C(C)(C)C(=O)N4C3CCC(=O)NC3=O)CC2)ccc1-c1cc(C2=CCCN(C(=O)[C@@H](C)Cn3cccn3)C2)c(F)c2[nH]c(C(=O)N(C)C)cc12 (stereo partly shown) | 1000 to 10000 | A (A (>90%)) | 1 to 10 | – | –
4 | CN(C)C(=O)c1cc2c(-c3cc(F)c(N4CCN(CCc5cccc6c5C(C)(C)C(=O)N6C5CCC(=O)NC5=O)CC4)cc3Cl)cc(C3=CCCN(C(=O)CCn4cccn4)C3)c(F)c2[nH]1 (stereo not shown) | < 100 | A (A (>90%)) | < 1 | – | –
5 | Cc1nn(C2CCC(=O)NC2=O)c2cccc(CCN3CC[C@@H](c4cc(F)c(-c5cc(C6=CCCN(C(=O)CCn7cccn7)C6)c(F)c6[nH]c(C(=O)N(C)C)cc56)cc4F)C(F)(F)C3)c12 (stereo partly shown) | < 100 | A (A (>90%)) | < 1 | – | –
6 | CCN(C)C(=O)c1cc2c(-c3ccc(C4CCN(c5cc(F)c(C6CCC(=O)NC6=O)cc5F)CC4)cc3)cc(C3=CCCN(C(=O)CCn4ccnn4)C3)c(F)c2[nH]1 (stereo not shown) | 100 to 1000 | A (A (>90%)) | < 1 | – | –
7 | Cc1cc(C2CCN(CCc3cccc4c3C(C)(C)C(=O)N4C3CCC(=O)NC3=O)CC2)ccc1-c1cc(C2=CCCN(C(=O)CCn3ccnn3)C2)c(F)c2[nH]c(C(=O)N(C)C)cc12 (stereo not shown) | < 100 | A (A (>90%)) | < 1 | – | –
8 | Cc1nc(-c2cc(C3=CCCN(C(=O)CCn4cccn4)C3)c(F)c3[nH]c(C(=O)N(C)C)cc23)c(F)cc1C1CCN(c2ccc(C3CCC(=O)NC3=O)cc2F)CC1 (stereo not shown) | < 100 | A (A (>90%)) | < 1 | – | –
9 | CN(C)C(=O)c1cc(-c2ccc(C3CCN(c4cccc5c(C6CCC(=O)NC6=O)nn(C)c45)CC3)cc2)c2c(c1)cc(C1=CCCN(C(=O)CCn3ccnn3)C1)n2CC1CC1 (stereo not shown) | < 100 | A (A (>90%)) | < 1 | – | –
10 | Cc1cc(C2CCN(c3cccc4c3c(C)nn4C3CCC(=O)NC3=O)CC2)ccc1-c1cc(C2=CCCN(C(=O)CCn3cccn3)C2)c(F)c2[nH]c(C(=O)N(C)C)cc12 (stereo not shown) | < 100 | – | – | A (A (>90%)) | 1 to 10
11 | CN(C)C(=O)c1cc2c(-c3ccc(C4CCN(c5ccc(C6CCC(=O)NC6=O)cc5F)CC4)cc3)cc(C3=CCCN(C(=O)CCn4ccnn4)C3)c(F)c2[nH]1 (stereo not shown) | – | A (A (>90%)) | < 1 | A (A (>90%)) | < 1
12 | Cc1nn(C2CCC(=O)NC2=O)c2cccc(CCN3CCN(c4cc(Cl)c(-c5cc([C@H]6CCCN(C(=O)CCn7cccn7)C6)c(F)c6[nH]c(C(=O)N(C)C)cc56)cc4F)CC3)c12 (stereo partly shown) | 100 to 1000 | – | – | A (A (>90%)) | < 1
13 | CC(C)C(=O)N1CCC=C(c2cc(-c3ccc([C@@H]4CCN(CCc5cccc6c(C7CCC(=O)NC7=O)nn(C)c56)CC4(F)F)cc3F)c3cc(C(=O)N(C)C)[nH]c3c2F)C1 (stereo partly shown) | 1000 to 10000 | – | – | A (A (>90%)) | < 1
14 | COc1cc(CCN2CCN(c3ccc(C4CCC(=O)NC4=O)cc3F)CC2)ccc1-c1cc(C2=CCCN(C(=O)CCn3ccnn3)C2)c(F)c2[nH]c(C(=O)N(C)C)cc12 (stereo not shown) | < 100 | – | – | A (A (>90%)) | < 1
15 | Cn1c(=O)n(C2CCC(=O)NC2=O)c2cccc(CCN3CCN(c4ccc(-c5cc([C@H]6CCCN(C(=O)CCn7cccn7)C6)c(F)c6[nH]c(C(=O)N7CCCC7)cc56)cc4)CC3)c21 (stereo partly shown) | 100 to 1000 | – | – | B (B (>70-90%)) | < 1
16 | Cc1nn(C2CCC(=O)NC2=O)c2cccc(CCN3CCN(c4cc(Cl)c(-c5cc(C6=CCCN(C(=O)C(C)C)C6)c(F)c6[nH]c(C(=O)N(C)C)cc56)cc4F)CC3)c12 (stereo not shown) | 1000 to 10000 | – | – | A (A (>90%)) | 1 to 10

Row | Compound | IC50 [1] [nM] | STAT6 HiBiT degradation Dmax % 24 h (STAT6-HiBiT) | DC50 (STAT6-HiBiT) [nM] | STAT6 MSD degradation Dmax % 24 h (STAT6) | DC50 (STAT6) [nM]
17 | COc1cc(C2CCN(c3ccc(-c4cc(C5=CCCN(C(=O)CCn6cccn6)C5)c(F)c5[nH]c(C(=O)N(C)C)cc45)c(C)c3F)CC2)c(F)cc1NC1CCC(=O)NC1=O (stereo not shown) | 100 to 1000 | – | – | A (A (>90%)) | 1 to 10
18 | CN(C(=O)c1cc2c(-c3ccc(N4CCN(CCCc5cccc6c5n(C)c(=O)n6C5CCC(=O)NC5=O)CC4)cc3)cc([C@H]3CCCN(C(=O)CCn4cccn4)C3)c(F)c2[nH]1)C1CC1 (stereo partly shown) | < 100 | – | – | A (A (>90%)) | < 1
19 | COc1cc(N2CCC(c3ccc(-c4cc(C5=CCCN(C(=O)CCn6cccn6)C5)c(F)c5[nH]c(C(=O)N(C)C)cc45)c(OC(F)(F)F)c3)CC2)c(F)cc1NC1CCC(=O)NC1=O (stereo not shown) | < 100 | – | – | B (B (>70-90%)) | 1 to 10
20 | COc1cc(N2CCN(c3cc(Cl)c(-c4cc(C5=CCCN(C(=O)CCn6cccn6)C5)c(F)c5[nH]c(C(=O)N(C)C)cc45)cc3F)CC2)c(F)cc1NC1CCC(=O)NC1=O (stereo not shown) | < 100 | – | – | B (B (>70-90%)) | 1 to 10
21 | CC(C)C(=O)N1CCC=C(c2cc(-c3ccc(N4CCN(C5CCN(c6cccc7c6n(C)c(=O)n7C6CCC(=O)NC6=O)CC5)CC4)cc3)c3cc(C(=O)N(C)C)[nH]c3c2F)C1 (stereo not shown) | 100 to 1000 | – | – | B (B (>70-90%)) | 1 to 10
22 | COc1cc(N2CCC(N3CCN(c4ccc(-c5cc([C@@H]6CCCN(C(=O)CCn7cccn7)C6)c(F)c6[nH]c(C(=O)N(C)C)cc56)cc4)CC3)CC2)c(F)cc1NC1CCC(=O)NC1=O (stereo partly shown) | 1000 to 10000 | – | – | C (C (>50-70%)) | 10 to 100
23 | CN(C)C(=O)c1cc(-c2cccc(N3CCN(CCc4cccc5c4n(C)c(=O)n5C4CCC(=O)NC4=O)CC3)c2)c2nc(C3=CCCN(C(=O)CCn4cccn4)C3)sc2c1 (stereo not shown) | < 100 | – | – | – | 10 to 100
24 | COc1cc([C@H]2CC[C@@H](c3ccc(-c4cc(C5=CCCN(C(=O)CCn6cccn6)C5)c(F)c5[nH]c(C(=O)N(C)C)cc45)cc3)CC2)c(F)cc1NC1CCC(=O)NC1=O (relative stereo) | 100 to 1000 | – | – | B (B (>70-90%)) | 1 to 10
25 | COc1cc(N2CC[C@@H](c3ccc(-c4cc(C5=CCCN(C(=O)CCn6cccn6)C5)c(F)c5[nH]c(C(=O)N(C)C)cc45)c(C)c3)C(F)(F)C2)c(F)cc1NC1CCC(=O)NC1=O (stereo partly shown) | < 100 | – | – | A (A (>90%)) | < 1
26 | CC(=O)N1CCC=C(c2cc(-c3cc(F)c(C4CCN(c5cccc6c5n(C)c(=O)n6C5CCC(=O)NC5=O)CC4)cc3C)c3cc(C(=O)N(C)C)[nH]c3c2F)C1 (stereo not shown) | 1000 to 10000 | – | – | A (A (>90%)) | < 1
27 | CN(C)C(=O)c1cc(-c2ccc(N3CCN(CCc4cccc5c4n(C)c(=O)n5C4CCC(=O)NC4=O)CC3)cc2)c2[nH]c(C3=CCCN(C(=O)CCn4ccnn4)C3)cc2c1 (stereo not shown) | < 100 | – | – | A (A (>90%)) | 1 to 10
28 | C[C@H](Cn1ccnn1)C(=O)N1CCC=C(c2cc(-c3ccc(C4CCN(c5ccc(NC6CCC(=O)NC6=O)cc5F)CC4)cc3)c3cc(C(=O)N(C)C)[nH]c3c2F)C1 (stereo partly shown) | 1000 to 10000 | – | – | – | 10 to 100
29 | CN(C)C(=O)c1cc2c(-c3cc(F)c(N4CCN(c5ccc(NC6CCC(=O)NC6=O)cc5F)CC4)cc3F)cc(C3=CCCN(C(=O)CCn4cccn4)C3)c(F)c2[nH]1 (stereo not shown) | < 100 | – | – | B (B (>70-90%)) | < 1
30 | COc1cc(N2CCN(c3ccc(-c4cc(C5=CCCN(C(=O)CCn6cccn6)C5)c(F)c5[nH]c(C(=O)N(C)C)cc45)c(F)c3)CC2)c(F)cc1NC1CCC(=O)NC1=O (stereo not shown) | < 100 | – | – | B (B (>70-90%)) | 1 to 10
31 | COc1cc(N2CCC(c3ccc(-c4cc(C5=CCCN(C(=O)CCn6cccn6)C5)c(F)c5[nH]c(C(=O)N(C)C)cc45)c(C)c3)CC2)c(F)cc1NC1CCC(=O)NC1=O (stereo not shown) | < 100 | – | – | B (B (>70-90%)) | 1 to 10
32 | CN(C)C(=O)c1cc(-c2cccc(N3CCN(Cc4cccc5c4n(C)c(=O)n5C4CCC(=O)NC4=O)CC3)c2)c2nc(C3=CCCN(C(=O)CCn4cccn4)C3)sc2c1 (stereo not shown) | < 100 | – | – | – | > 1000
